Test results taken from PMC13288645, “A cryopreserved and in vivo-in vitro validated human induced pluripotent stem cell blood-brain barrier model for reliable neurotoxicity assessment” (NAM journal, 2025).

Tests used:
[1] = tested on: hiPSC-derived blood-brain barrier model; experiment: Permeability testing (apparent permeability Papp) in tricellular hiPSC-derived BBB model, 96-transwell; conditions: 96-transwell hiPSC-derived BBB, 60 min; 5 µM (17β-Estradiol 10 µM, Deltamethrin 3 µM)
[2] = source not stated; cited from earlier work
BBB = conditions: cited from earlier work

## Buprenorphine
[1]
  in vitro apparent permeability Papp: > 15 × 10^–6 cm/s
[2]
  LogP: 4.98
BBB; human clinical PET, ref Ghazanfari et al. 2024, Le Roux et al. 2019
  In vivo human rate constant for compound transfer from blood across the BBB into brain (K1): 0.17 mL min^-1 cm^-3
BBB; human, ref Delforge et al., 1995, Le Roux et al., 2019, Zubieta et al., 2000
  human in vivo permeability K1 (elevated): > 0.1 mL cm^-3 min^-1
